Among the data in PMC3702509, “Label Free Fragment Screening Using Surface Plasmon Resonance as a Tool for Fragment Finding – Analyzing Parkin, a Difficult CNS Target” (PLoS ONE, 2013) are Kd and dissociation time (printed beside kd) values, retold here.

Protein sequences, listed by entry. Tags and fused reporters are not part of them. Lines headed by an entry give the natural chain unless they say otherwise; changes in a name come on top.
UniProt O60260: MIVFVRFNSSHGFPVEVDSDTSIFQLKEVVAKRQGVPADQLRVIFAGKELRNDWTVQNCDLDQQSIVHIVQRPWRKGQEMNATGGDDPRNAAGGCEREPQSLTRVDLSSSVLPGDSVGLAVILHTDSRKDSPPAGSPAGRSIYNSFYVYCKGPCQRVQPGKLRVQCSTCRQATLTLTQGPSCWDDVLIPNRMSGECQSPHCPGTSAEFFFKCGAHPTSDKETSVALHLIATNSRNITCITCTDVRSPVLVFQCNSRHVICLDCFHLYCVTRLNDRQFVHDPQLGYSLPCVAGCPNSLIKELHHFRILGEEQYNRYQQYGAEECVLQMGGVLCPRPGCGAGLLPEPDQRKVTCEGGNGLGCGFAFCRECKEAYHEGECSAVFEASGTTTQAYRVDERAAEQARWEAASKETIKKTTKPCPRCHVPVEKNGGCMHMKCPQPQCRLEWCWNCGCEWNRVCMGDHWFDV
UniProt P68036, whole entry: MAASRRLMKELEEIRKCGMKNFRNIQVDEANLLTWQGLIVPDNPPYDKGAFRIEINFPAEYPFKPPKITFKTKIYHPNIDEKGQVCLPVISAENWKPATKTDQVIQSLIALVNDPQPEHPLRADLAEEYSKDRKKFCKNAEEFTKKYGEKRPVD

What is called Kd is the constant that tells how readily two partners part at equilibrium.

Assay [1] deals with FL-FLAG-Parkin (full-length Parkin with N-terminal 3xFLAG and TEV site) (human) (UniProt O60260). Put plainly: SPR; thermal treated (56°C) FL-FLAG Parkin captured on amine-coupled anti-FLAG M2 antibody on a CM5 chip; protein ligands injected; 25°C; 10 mM HEPES pH 7.4, 150 mM NaCl, 0.005% Tween-20, 4 mM reducing agent; 1:1 binding model. On the technique in general: SPR reads the build-up and loss of mass on a sensor chip optically.

Assay [2] has the same target. Put plainly: SPR; non-thermal treated (RT) FL-FLAG Parkin captured on amine-coupled anti-FLAG M2 antibody on a CM5 chip at 3:1 (Parkin:Ab); protein ligands injected in dilution series; 25°C; 10 mM HEPES pH 7.4, 150 mM NaCl, 0.005% Tween-20, 4 mM reducing agent; 1:1 binding model; Biacore T100 or T200.

In the case of “UbcH7, E2 ubiquitin conjugating enzyme (UBE2L3 residues 1-154) (from UniProt P68036-1 1-154) (enzyme; other documents disagree on this pair)”, the equilibrium dissociation constant (Kd) in assay [1] is 8.1 µM. Moreover, in assay [2], the Kd is 4.7 µM and the dissociation time (printed beside kd) was determined as 30 s.
